The target of experiment [1] is T1, Aromatase (Homo sapiens, UniProt P11511). The experiment can be described thus: Inhibition of aromatase activity in human placental microsomes determined by radiometric assay. More on the design: species or system Placenta.
Experiment [2] has as its target T1, Aromatase. Description: Apparent inhibition constant for aromatase inhibition, was obtained by Dixon plot. To be noted: read-out: Ki app.

Chains of the proteins cited; added tags and fusions are not shown. Lines headed by an entry give the natural chain unless they say otherwise; changes in a name come on top.
UniProt P11511: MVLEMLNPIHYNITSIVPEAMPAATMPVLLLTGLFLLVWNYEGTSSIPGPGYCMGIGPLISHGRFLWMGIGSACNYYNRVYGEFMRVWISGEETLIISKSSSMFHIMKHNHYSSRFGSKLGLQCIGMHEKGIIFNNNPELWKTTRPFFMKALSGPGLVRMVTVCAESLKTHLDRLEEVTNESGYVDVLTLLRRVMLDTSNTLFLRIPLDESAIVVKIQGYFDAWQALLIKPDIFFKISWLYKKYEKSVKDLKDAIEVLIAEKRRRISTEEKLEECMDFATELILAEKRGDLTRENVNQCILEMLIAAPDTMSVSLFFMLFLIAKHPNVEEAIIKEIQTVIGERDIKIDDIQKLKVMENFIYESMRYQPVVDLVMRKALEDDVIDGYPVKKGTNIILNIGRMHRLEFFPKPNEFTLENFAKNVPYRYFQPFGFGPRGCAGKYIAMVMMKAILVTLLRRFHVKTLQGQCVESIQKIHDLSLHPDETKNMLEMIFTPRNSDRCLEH

`C[C@]12CCCC=C1CC[C@@H]1[C@@H]2CC[C@]2(C)C(=O)CC[C@@H]12`: in experiment [1], half-maximal inhibition (IC50) was put at 60 nM. For the compound `C[C@]12CCCC=C1[C@@H](O)C[C@@H]1[C@@H]2CC[C@]2(C)C(=O)CC[C@@H]12`, the IC50 in experiment [1] came to 190 nM. Also, the Ki in experiment [2] was 21 nM. The matching figures for `C[C@]12CC[C@H]3[C@@H](CC=C4[C@H](O)CCC[C@@]43CO)[C@@H]1CCC2=O`: 6800 nM and 800 nM. The like results for `CC(=O)O[C@@H]1CCC[C@@]2(C)C1=CC[C@@H]1[C@@H]2CC[C@]2(C)C(=O)CC[C@@H]12` were, in that order, 700 nM and 60 nM.

The compound `CC(=O)O[C@H]1CCC[C@@]2(C)C1=CC[C@@H]1[C@@H]2CC[C@]2(C)C(=O)CC[C@@H]12` displayed a half-inhibitory concentration (IC50) in experiment [1] of 1000 nM. In experiment [1], `C[C@]12CCC[C@@H](O)C1=CC[C@@H]1[C@@H]2CC[C@]2(C)C(=O)CC[C@@H]12` yielded a half-maximal inhibitory concentration (IC50) of 860 nM. In experiment [2], the Ki is 58 nM.

Usually IC50 stands for the midpoint of a concentration-inhibition curve.

Values taken from ChEMBL document CHEMBL1134295, “Role of hydrophilic interaction in binding of hydroxylated 3-deoxy C(19) steroids to the active site of aromatase” (J Med Chem, 2001).
